## Apparent affinities of Ab-95 variants for a coronavirus HR2 peptide

Antigen: PDVDLGDISGINAS, a 14-residue peptide of the SARS-CoV-2 spike HR2 region.

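Phage display of a naive human antibody library on the peptide gave the parent. AAYL52 was designed without a model: most single CDR substitutions and a random sample of double and triple ones. The assay is AlphaSeq: two haploid yeast populations carry antibody and antigen on their surface. Mating (16 h, 30 °C) was followed by selection of diploids and sequencing of their barcodes. The ratio of observed to expected reads was calibrated, replicate by replicate, on BCL2-family standards whose Kd was known from biolayer interferometry. Mating was done three times.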

Parent: Ab-95, a human scFv built as VH, a (GGGGS)3 linker, VL. Only the CDRs of the light chain vary.
VH: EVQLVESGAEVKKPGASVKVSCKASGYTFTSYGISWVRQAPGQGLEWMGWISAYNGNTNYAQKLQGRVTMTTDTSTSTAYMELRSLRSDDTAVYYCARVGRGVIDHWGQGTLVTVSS
VL: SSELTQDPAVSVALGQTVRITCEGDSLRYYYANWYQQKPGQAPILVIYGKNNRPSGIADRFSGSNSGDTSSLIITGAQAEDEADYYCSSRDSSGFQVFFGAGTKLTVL

Positions count from residue 1 of the parent VL; D25E puts E in place of D. The read-out is the apparent dissociation constant on a log10 scale (nM): the lower, the stronger. Replicates are averaged; those with no signal do not enter the mean. Where no diploid with the target was found in that replicate, the entry reads "n.d.": below detection, most likely a poor binder, though not proof of it.

changes | replicates, log10 nM | mean, log10 nM | control signals
D25E/G49T/P54T | 4.08 / n.d. / n.d. | 4.08 | 1/9 (4.06)
L27D/Y31R/N51R | 3.77 / n.d. / n.d. | 3.77 | 2/9 (4.41)
E23L/N33W/R90Y | n.d. / n.d. / n.d. | n.d. | 2/9 (3.09)
L27V/R90P/S92F | 3.22 / n.d. / 3.06 | 3.14 | 4/9 (4.10)
Y29T/A32I/G94R | 4.13 / 5.44 / n.d. | 4.78 | 5/9 (4.03)
S26I/K50T/V97S | n.d. / n.d. / n.d. | n.d. | 3/9 (2.97)
R28P/S55I/Q96L | 2.48 / 2.48 / 3.04 | 2.67 | 5/9 (3.99)
G24H/Y31N/S88K | n.d. / n.d. / n.d. | n.d. | 0/9
G24C/Y29M | 3.47 / 3.14 / 3.22 | 3.28 | 3/9 (4.07)
D25K/S55W/Q96A | 3.50 / 2.61 / 1.77 | 2.63 | 2/9 (4.00)
A32W/G49T/R53E | n.d. / 2.66 / n.d. | 2.66 | 0/9
Y29M/D91W/V97W | 2.33 / 2.81 / 2.02 | 2.39 | 2/9 (3.65)
K50I/S89C/S93R | 2.85 / 2.75 / 2.75 | 2.78 | 5/9 (4.28)
R28P/F95W | n.d. / n.d. / n.d. | n.d. | 1/9 (3.21)
S88K/R90E/F95D | 2.46 / 1.79 / 1.51 | 1.92 | 2/9 (3.56)
E23F/G49Q/V97N | n.d. / n.d. / n.d. | n.d. | 3/9 (3.90)
Y29W/R53L/S92Q | 3.26 / 3.52 / 3.17 | 3.32 | 4/9 (4.61)
Y30Q/S55V/S93K | 0.72 / 0.59 / -0.10 | 0.40 | 4/9 (4.30)
S26H/G49D/D91E | 2.67 / 2.13 / n.d. | 2.40 | 2/9 (3.53)
A32M/N51C/S89F | n.d. / 5.47 / n.d. | 5.47 | 2/9 (3.62)
K50H/G94I | 3.35 / 2.74 / n.d. | 3.04 | 4/9 (4.03)
Y29Q/N33A/S93A | 4.37 / n.d. / n.d. | 4.37 | 1/9 (4.17)
S26F/S88N/G94E | 3.20 / 3.48 / n.d. | 3.34 | 3/9 (4.10)
E23Q/S26K/S55Y | 4.93 / n.d. / n.d. | 4.93 | 1/9 (4.31)
S55K/F95C | 3.61 / n.d. / n.d. | 3.61 | 2/9 (3.12)
L27K/G49M/Q96L | 3.16 / n.d. / n.d. | 3.16 | 5/9 (3.97)
D25H/A32E/N52K | n.d. / n.d. / 4.06 | 4.06 | 2/9 (4.21)
G24V/K50E/F95Q | 3.00 / 3.01 / 2.87 | 2.96 | 3/9 (3.30)
D25S/R90D/V97P | n.d. / 3.88 / n.d. | 3.88 | 1/9 (3.92)
R28I/N52M/F98E | 5.09 / 2.99 / n.d. | 4.04 | 2/9 (3.32)
N52P/S55I/S93T | 3.88 / n.d. / n.d. | 3.88 | 2/9 (3.40)
E23F/G49F/S92M | n.d. / n.d. / n.d. | n.d. | 4/9 (3.28)
Y29I/N51Q/R53N | 4.25 / n.d. / n.d. | 4.25 | 0/9
N51Q/S89I/G94C | 2.39 / 2.53 / 2.06 | 2.33 | 4/9 (3.49)
E23F/Y29Q/S88N | 2.43 / 2.57 / 2.32 | 2.44 | 1/9 (3.62)
A32D/G49Q/Q96K | 3.71 / n.d. / n.d. | 3.71 | 3/9 (4.27)
G24E/K50E | n.d. / 5.12 / n.d. | 5.12 | 0/9

A selection of 3 entries from above:

| changes | replicates, log10 nM | mean, log10 nM | control signals |
|---|---|---|---|
| A32D/G49Q/Q96K | 3.71 / n.d. / n.d. | 3.71 | 3/9 (4.27) |
| N52P/S55I/S93T | 3.88 / n.d. / n.d. | 3.88 | 2/9 (3.40) |
| G24C/Y29M | 3.47 / 3.14 / 3.22 | 3.28 | 3/9 (4.07) |

Nonspecific signal, from three strains lacking the peptide, appeared in 28% of pairings of library AAYL52, centred on 3.91 (5% of these signals below 2.90); values are not corrected for it. For each scFv, signals with the empty controls are counted beside the result, with their mean in brackets. In this assay the parent's reference entry averaged 2.31; its copy inside this library read 2.25.

From the AlphaSeq antibody data of Engelhart et al. 2022 (doi:10.1038/s41597-022-01779-4), copy in the FLAb collection.